{"source": "ChEMBL document CHEMBL5506044", "about": "“Ligandability Assessment of IL-1β by Integrated Hit Identification Approaches” (J Med Chem, 2024)", "key": {"[1]": {"target": "T1, Interleukin-1 beta (Homo sapiens) (UniProt P01584)", "T1 sequence (whole entry)": "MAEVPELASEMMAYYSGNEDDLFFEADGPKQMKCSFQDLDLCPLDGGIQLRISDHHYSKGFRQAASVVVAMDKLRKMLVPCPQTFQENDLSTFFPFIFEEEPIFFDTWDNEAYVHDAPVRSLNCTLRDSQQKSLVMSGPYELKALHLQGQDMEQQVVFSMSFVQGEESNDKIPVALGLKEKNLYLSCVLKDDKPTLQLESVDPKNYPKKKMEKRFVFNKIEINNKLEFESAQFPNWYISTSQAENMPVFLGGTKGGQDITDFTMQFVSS", "experiment": "Binding affinity to human IL-1 beta assessed as protein-compound covalent conjugate formation at 50 pmol preincubated for 1 hr followed by incubation with NaCNBH3 and measured after 1 hr by mass spectrometry", "settings": "filed as antagonist, time 2.0 hrs"}, "[2]": {"target": "T1, Interleukin-1 beta (Homo sapiens)", "experiment": "Binding affinity to human IL-1 beta upto 1 mM by 2D[13C, 1H]-HMQC NMR spectroscopy"}, "[3]": {"target": "T1, Interleukin-1 beta (Homo sapiens)", "experiment": "Binding affinity to human IL-1 beta expressed in Escherichia coli BL21 (DE3) assessed as on-rate constant by 2D NMR titration based analysis", "settings": "filed as antagonist"}, "[4]": {"target": "T1, Interleukin-1 beta (Homo sapiens)", "experiment": "Binding affinity to human IL-1 beta by 2D[13C, 1H]-HMQC NMR spectroscopy", "settings": "filed as antagonist"}}, "note": "Calls of active or inactive are those of the source. The rule behind the calls is not given here.", "data": [{"compound": "CC(C)c1cc(-c2cc(C(=O)O)cn3cc(C(=O)N4CCN(S(=O)(=O)c5ccccc5)CCC4C(=O)NCCN4CCOCC4)nc23)ccc1C=O", "note": "(racemic)", "values": [{"measurement": "Activity", "setting": "[1]", "value": "Active"}]}, {"compound": "CC(C)c1cccc(-c2cc(C(=O)O)cn3cc(C(=O)N4CCN(S(=O)(=O)c5ccccc5)CCC4C(=O)NCCN4CCOCC4)nc23)c1", "note": "(centres undefined)", "values": [{"measurement": "Activity", "setting": "[2]", "value": "inactive"}]}, {"compound": "O=C1Nc2cc(C(F)(F)F)ccc2[C@]1(O)c1cc(Cl)ccc1O", "values": [{"measurement": "K", "setting": "[3]", "value": "2.7 10^5/M/s"}]}, {"compound": "OC(c1ccc(OC(F)F)cc1)(c1cccc(Br)c1)c1cc[nH]n1", "note": "(racemic)", "values": [{"measurement": "Activity", "setting": "[4]", "value": "Active"}]}]}
